By UniProt entry, the sequences of proteins in these tests, tags left out. Residues count along the entry.
UniProt P01116, 1-188 isoform 2 G12D: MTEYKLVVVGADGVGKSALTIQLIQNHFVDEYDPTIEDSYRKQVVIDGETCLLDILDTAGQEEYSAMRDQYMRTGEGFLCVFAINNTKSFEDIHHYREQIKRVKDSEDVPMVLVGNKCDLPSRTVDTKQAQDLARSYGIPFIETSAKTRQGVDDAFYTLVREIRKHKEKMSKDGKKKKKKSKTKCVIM
UniProt P01116, 1-188 isoform 2 G12V: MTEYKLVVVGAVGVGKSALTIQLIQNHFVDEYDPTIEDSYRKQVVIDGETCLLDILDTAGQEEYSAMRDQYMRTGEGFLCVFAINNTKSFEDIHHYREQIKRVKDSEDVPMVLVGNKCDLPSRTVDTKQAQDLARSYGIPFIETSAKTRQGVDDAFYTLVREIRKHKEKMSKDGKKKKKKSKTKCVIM

According to US20240358702A1, “CYCLIC UREA KRAS INHIBITORS” (INCYTE CORPORATION, priority 2023, published 2024):

Key:
KRAS G12D = KRAS G12D (Homo sapiens, UniProt P01116, G12D); assay: GDP-GTP exchange assay (bodipy-GDP/GppNHp, SOS1), KRAS G12D; conditions: KRAS_G12D exchange assay IC50; 4 h pre-incubation; value for the most potent isomer quoted
Description: (§1) The inhibitor potency of the exemplified compounds was determined in a fluorescence based guanine nucleotide exchange assay, which measures the exchange of bodipy-GDP (fluorescently labeled GDP) for GppNHp (Non-hydrolyzable GTP analog) to generate the active state of KRAS in the presence of SOS1 (guanine nucleotide exchange factor). Inhibitors were serially diluted in DMSO and a volume of 0.1 μL was transferred to the wells of a black low volume 384-well plate. 5 μL/well volume of bodipy-loaded KRAS G12D diluted to […] in assay buffer (25 mM Hepes pH 7.5, 50 mM NaCl, 10 mM mgCl2 and 0.01% Brij-35) was added to the plate and pre-incubated with inhibitor for 4 h at ambient temperature. Appropriate controls (enzyme with no inhibitor or with a G12D inhibitor) were included on the plate. The exchange was initiated by the addition of a 5 μL/well volume containing 1 mM GppNHp and 300 nM SOS1 in assay buffer. The 10 μL/well reaction concentration of the bodipy-loaded KRAS G12D, GppNHp, and SOS1 were 2.5 nM, 500 uM, and 150 nM, respectively. The reaction plates were incubated at ambient temperature for 2 h, a time estimated for complete GDP-GTP exchange in the absence of inhibitor. […] Fluorescence intensities were measured on a PheraStar plate reader instrument (BMG Labtech) with excitation at 485 nm and emission at 520 nm. […]

KRAS G12V = KRAS G12V (Homo sapiens, UniProt P01116, G12V); assay: GDP-GTP exchange assay (bodipy-GDP/GppNHp, SOS1), KRAS G12V; conditions: read-out: G12V_exchange; KRAS_G12V exchange assay IC50; value for the most potent isomer quoted
Description: as §1

**Q.** How did the G12D_exchange (KRAS G12D) turn out when `COc1ncccc1N1CCCN([C@H](C)c2cc3c(C)nc4c(F)c(-c5cccc(Cl)c5Cl)c(CCC#N)cc4c3n2[C@H]2[C@H]3CN[C@@H]2C3)C1=O` was run?
**A.** The G12D_exchange was “†”.

**Q.** And the IC50 (KRAS G12V)?
**A.** Its IC50 is 0.1 to 1 µM.
